# Measured affinities in a library of Ab-14 light chain variants

Source: Li et al. 2023 (doi:10.1038/s41467-023-39022-2), MIT Lincoln Laboratory and A-Alpha Bio; data file from the FLAb repository.

Target: peptide PDVDLGDISGINAS, taken from heptad repeat 2 (HR2) of SARS-CoV-2 spike.

Each scFv is VH, three GGGGS repeats, VL, as in the parent Ab-14, and differs from it in the CDRs of the light chain only.
VH: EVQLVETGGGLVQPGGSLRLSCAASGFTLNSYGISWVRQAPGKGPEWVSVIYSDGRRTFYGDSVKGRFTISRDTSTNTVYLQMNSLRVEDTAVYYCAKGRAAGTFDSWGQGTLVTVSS
VL: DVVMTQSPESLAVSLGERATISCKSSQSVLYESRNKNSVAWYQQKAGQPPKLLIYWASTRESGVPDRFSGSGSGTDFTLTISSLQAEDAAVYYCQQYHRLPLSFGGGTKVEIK

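Designed CDR sequences, proposed from the first random library and measured here. Group labels follow the data file (Ctrl: baseline library sampled from a position-specific scoring matrix, with some repeated check sequences; En: ensemble of fine-tuned language models; GP: Gaussian process model; HC: hill climbing; Gen: genetic algorithm; Gibbs: Gibbs sampling; a sequence that several methods proposed may carry one label only). In AlphaSeq, yeast of one mating type display the scFv and yeast of the other type display the target. Mating (16 h, 30 °C) was followed by selection of diploids and sequencing of their barcodes. Scores were corrected for input abundance and mapped to Kd with protein pairs of known affinity run in the same pool. There are six technical replicates.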

The parent's light chain CDRs are KSSQSVLYESRNKNSVA, WASTRES, QQYHRLPLS; each variant's own CDRs replace them letter for letter.
Values are apparent Kd, the geometric mean of the replicates that gave a signal; lower means stronger binding.
An entry "nd" has no value in the source: the pair was not observed among the diploids in any replicate. This suggests poor binding but is not conclusive.
The authors' rule: three or more of the six replicates give a measured affinity, fewer mean a poor binder.

Read-out 3.6 nM (6 of 6 replicates), from KLRQSTEYESRNKNSVA, WASTRLS, QQYHRLPLS [GP_HC].
Read-out 8.7 nM (4 of 6 replicates), from QLSMITGHASMIKNNVA, EMETREN, QQYDRLPLS [En_Gen].
Read-out 140 nM (1 of 6 replicates), from KSSQSVEYESRAKNSVA, WASTRES, QQYHRLPLS [Ctrl].
Read-out 17 nM (6 of 6 replicates), from KISQSWLYESRNINNVA, SCSQRES, QQYHRLPLS [GP_Gibbs].
Read-out 4.2 nM (6 of 6 replicates), from KMKQSIEGNPKNTNSIA, DVDSVTE, QQYARLPLF [En_Gibbs].
Read-out 2.3 nM (6 of 6 replicates), from HSNGNLRMGERNKNHVA, STDVRAS, QQYSRLPLT [En_Gibbs].
Read-out 320 pM (6 of 6 replicates), from KLSGSMLYELRNLNSVA, QASQRMS, QQYHRLPLS [GP_Gibbs].
Read-out 540 pM (6 of 6 replicates), from KLSQSYLYESRNKNSVA, QASTRES, QQYHRLPLS [GP_Gen].
Read-out 950 pM (6 of 6 replicates), from KCSQNVLIMGRNKNNVA, EMTTREE, QQYDRLPLS [En_HC].
Read-out 620 pM (6 of 6 replicates), from KVSQSQLYESRNKNSVA, QASTRES, QQYHRLPLS [GP_Gen].
Read-out 430 pM (6 of 6 replicates), from KFSPSVLYESRNKNSVA, DASTRES, QQYHRLPLS [GP_Gen].
Read-out 1.9 nM (6 of 6 replicates), from KSSWSVLYESGNKNSVA, EASTRED, QQYHRLPLS [GP_HC].
Read-out 4.1 nM (6 of 6 replicates), from KSFQSVLWELRNANSVA, DASTRES, QQYHRLPLS [Ctrl].
Read-out 2.7 nM (6 of 6 replicates), from KLSQSQLYESRNKNSVA, KASTRES, QQYHRLPLS [Ctrl].
Read-out 880 pM (6 of 6 replicates), from KSSQSVDEESRNKNSVA, AASTRES, QQYHRLPLS [Ctrl].
Read-out 240 nM (6 of 6 replicates), from KSSQSVPYETRNKNSVA, WASTRES, QQYHRLPLS [Ctrl].
Read-out nd (0 of 6 replicates), from KSSQSVPYESRNKNSVA, WATTRES, QQYYRLPNS [Ctrl].
Read-out 130 nM (6 of 6 replicates), from MISQLMNMGTFAINSVA, QASIRNA, QQYDRLPLA [En_Gen].
Read-out 5.5 nM (6 of 6 replicates), from KISQLVNFEGKNTNSVA, QMSTRES, QQYDRLPLS [En_HC].
Read-out 1.7 nM (6 of 6 replicates), from FLSQSELYESRNKNSVA, NASTRES, QQYHRLPLS [GP_Gen].
Read-out 14 nM (6 of 6 replicates), from KISMLYNYASTNKNSIA, EMTTRED, QHYHRLPLS [En_HC].
Read-out 1.7 nM (6 of 6 replicates), from KIQQFYEGESRNKNSVA, SASTRMS, QQYHRLPLS [GP_Gibbs].
Read-out 4.0 nM (6 of 6 replicates), from KSQGSNLYESRNWNSVA, KASTRLQ, QQYHRLPLS [GP_Gibbs].
Read-out 390 pM (4 of 6 replicates), from KISQMVTYESTWHGAIA, QTSEREE, QQYHRLPFS [En_HC].
Read-out 800 pM (6 of 6 replicates), from KLEQSELYESRNKNSVA, NASTRMS, QQYHRLPLS [GP_Gen].
Read-out 2.5 nM (6 of 6 replicates), from KSSQSVGYESRLKNSVA, WASTRES, QQYHRLPLS [Ctrl].
Read-out nd (0 of 6 replicates), from HVSEMIFAQMKMRNSVA, ENSTRES, QQYDRLPLS [En_HC].
Read-out 20 nM (6 of 6 replicates), from KLSYAVGGESRNKSSLA, DNSTRES, QQYHRLPLS [En_HC].
Read-out 11 nM (6 of 6 replicates), from TISQMFLGESRNRNSVA, QASTRES, QSYDRLPLS [En_HC].
Read-out 2.0 nM (6 of 6 replicates), from KLTMITGLEKIHGNNVA, EMETREK, QQYNRLPLS [En_Gen].
Read-out 18 nM (6 of 6 replicates), from KSSQSVSYEERNKNSIA, WASTRES, QQYHRLPLS [Ctrl].
Read-out 24 nM (6 of 6 replicates), from TISQMSTLFSQSINNVA, EVSTREE, QQYDRLPLV [En_Gen].
Read-out 3.5 nM (6 of 6 replicates), from KFSQSVLYEDRNKNSVA, NASTRES, QQYHRLPLS [GP_Gen].
Read-out 77 nM (6 of 6 replicates), from TISNSFMMENQFKNSVA, QAQTREN, QCYDRLPLS [En_HC].
Read-out 11 nM (6 of 6 replicates), from QLGKNQDGDTLSQNAIA, HDALLVD, QQYFRLPLL [En_Gibbs].
Read-out 2.4 nM (6 of 6 replicates), from TLGYQPTEMRDNKHAVA, DDEARTR, QQYMRLPLS [En_Gibbs].
Read-out 820 pM (6 of 6 replicates), from KLSQSWLYESRNKNSVA, NASQREK, QQYHRLPLS [GP_Gen].
Read-out 27 nM (6 of 6 replicates), from KSEQLVDYKDRNSNSVA, NASTRES, QQYHRLPLS [GP_Gibbs].
Read-out 9.5 nM (4 of 6 replicates), from KSSYSYLYESRNENSVA, EASTREQ, QQYHRLPLS [GP_HC].
Read-out 2.6 µM (5 of 6 replicates), from MITAMLRGMGRDKNSVA, NAQTRES, QHYNRLPLS [En_HC].
Read-out 1.1 nM (6 of 6 replicates), from KLSQSPLYESRNKNSVA, SASTRES, QQYRRLPLS [Ctrl].
Read-out 1.9 nM (6 of 6 replicates), from SIYDATAMESRNKNPIA, DVSTRPS, QQYHRLPLS [En_HC].
Read-out 5.2 nM (6 of 6 replicates), from QVSITNMQGHAMEHNVA, EGTYAEE, QQYARLPLQ [En_Gibbs].
Read-out 4.3 nM (6 of 6 replicates), from KLPHLSFVHDRMKNNVA, DLNRKAA, QQYDRLPLT [En_Gibbs].
Read-out 2.3 nM (6 of 6 replicates), from KVYQSQLYESRNKNSVA, NASTRES, QQYHRLPLS [GP_Gen].

Extract of 4 entries:

| CDR-L1 | CDR-L2 | CDR-L3 | group | Kd | seen in |
|---|---|---|---|---|---|
| KISQMVTYESTWHGAIA | QTSEREE | QQYHRLPFS | En_HC | 390 pM | 4 of 6 |
| MITAMLRGMGRDKNSVA | NAQTRES | QHYNRLPLS | En_HC | 2.6 µM | 5 of 6 |
| HSNGNLRMGERNKNHVA | STDVRAS | QQYSRLPLT | En_Gibbs | 2.3 nM | 6 of 6 |
| FLSQSELYESRNKNSVA | NASTRES | QQYHRLPLS | GP_Gen | 1.7 nM | 6 of 6 |

Values of this round are not directly comparable with the first-round values of the same sequences.
The parent sequence was in this pool as ten entries: three were never detected, three once, and four in most replicates, with averages from 2.2 nM to 240 nM.
Empty control strains, which show no peptide, gave a signal in 4% of pairings with all light chain designs; the median was 430 nM and 95% of these signals were weaker than 38 nM. No background was subtracted.